Results from patent publication US5827073A, “Photoreactive peptide derivatives” (Ludwig Institute for Cancer Research, priority 1995, dated 1998).

Chains of the proteins cited; added tags and fusions are not shown. Lines headed by an entry give the natural chain unless they say otherwise; changes in a name come on top.
UniProt P03485: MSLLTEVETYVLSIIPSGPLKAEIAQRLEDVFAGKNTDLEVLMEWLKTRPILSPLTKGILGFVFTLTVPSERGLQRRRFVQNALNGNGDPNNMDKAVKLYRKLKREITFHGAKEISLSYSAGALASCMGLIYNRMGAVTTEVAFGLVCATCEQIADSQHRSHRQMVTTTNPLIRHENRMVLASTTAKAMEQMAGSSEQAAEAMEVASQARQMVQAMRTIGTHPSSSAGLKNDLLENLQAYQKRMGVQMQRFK

Tested on: HLA-A1
Test: Inhibition of HLA-A1 photoaffinity labelling on C1R/A1 cells by competitor peptides
Assay type: binding, human
Settings: labelling with SEQ ID NO: 1 on C1R/A1 cells; 300 fold molar excess of competitor

Substance: influenza matrix peptide 57-66: HLA-A2 restricted influenza matrix peptide 57-66 (KGILGFVFTL; Matrix protein 1; UniProt P03485 57-66, looked up, fragment) [reference compound]
- inhibition of HLA-A1 photoaffinity labelling: no detectable inhibition
